Data on 50 molecules can be found in PubChem BioAssay AID652054 (National Center for Advancing Translational Sciences (NCATS), 2013).

Amino acid sequences for entries named in this document (tags omitted).
UniProt P35462, whole entry, looked up: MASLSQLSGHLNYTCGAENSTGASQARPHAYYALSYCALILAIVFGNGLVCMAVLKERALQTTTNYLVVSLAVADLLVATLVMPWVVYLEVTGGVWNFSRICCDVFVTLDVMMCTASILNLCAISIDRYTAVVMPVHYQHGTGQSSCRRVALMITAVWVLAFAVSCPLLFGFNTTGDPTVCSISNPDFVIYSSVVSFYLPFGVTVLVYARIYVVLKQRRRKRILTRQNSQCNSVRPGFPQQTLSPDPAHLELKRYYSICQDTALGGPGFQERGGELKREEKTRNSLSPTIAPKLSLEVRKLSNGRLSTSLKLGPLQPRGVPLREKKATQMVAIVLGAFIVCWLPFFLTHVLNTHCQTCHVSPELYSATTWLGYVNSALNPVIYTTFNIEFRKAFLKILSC

The list shows a part of the results, in another mix than the full data. Records with an inconclusive call do not appear. Activity calls are given as the source filed them. Rule as the data show it: active = max response below about -50%; inconclusive = no clear call, values can overlap the other calls; inactive = above that.
% is scaled to controls: 0 for no effect and ±100 for the full control effect.

This test concerns the target D(3) dopamine receptor (Homo sapiens) (UniProt P35462). In words: qHTS of D3 Dopamine Receptor Antagonist: qHTS. Conditions: D3R cells, DiscoveRx beta-arrestin luminescence, antagonist mode; active compounds read low. From the text: D3 DARs represent a very important target for the treatment of several neuropsychiatric disorders. Indeed, one of the most promising therapeutic applications for the D3 DAR is in the area of addiction and related disorders. […] These findings have been observed with a number of addictive substances including cocaine, amphetamine, nicotine, and alcohol. […] Antagonism of the D3 DAR may also be therapeutic in the treatment of schizophrenia or psychosis. […] Since the D3 DAR is expressed in areas of the CNS associated with the control of mood and emotion, it has been hypothesized that selective antagonism of the D3 DAR may be effective in treating psychosis without inducing the motor side effects typically seen with D2 DAR antagonists.
This part of the project aims to discover novel antagonist.
NIH Chemical Genomics Center [NCGC]
NIH Molecular Libraries Probe Centers Network [MLPCN]
Assay Submitter (PI): David Sibley, NINDS
Freshly passaged cells are plated in 1536 well white, solid bottom plates at a density of 1500 cells/well in 3microl of complete media. After an overnight incubation at 37 degrees C in 5% CO2, cells are loaded with 23nl of test compound from the compound library (as well as dopamine controls) using a 1536 pintool and incubated at 37 degrees C for 90 minutes. Two microliters of DiscoveRx reagent is then added to all cells, and they are incubated for an additional 30 - 60 minutes at room temperature. Following incubation, luminescence is measured on a ViewLux CCD-based luminometer reader using a 20 sec exposure time.
(In general: Quantitative high-throughput screening tests each substance at several concentrations.)
Turning to `CCOC(=O)Nc1cccc([As](=O)(O)O)c1`, the max response, negative = inhibition was inactive: 2.32%.

As to `O=P(Nc1ccccn1)(c1cccc2ccccc12)c1cccc2ccccc12`, the max response, negative = inhibition is inactive: 1.01%.

For `Cc1cc(SC(NC=O)C(Cl)(Cl)Cl)ncn1` (stereo not given), the max response, negative = inhibition is inactive: -9.09%.

With `O=[N+]([O-])c1ccc(Nc2ccc(Oc3ccc([N+](=O)[O-])cc3[N+](=O)[O-])cc2)c([N+](=O)[O-])c1`, the max response, negative = inhibition is inactive: 9.26%.

As for `CCOC(=O)Nc1ccc([As](=O)(O)O)c(O)c1`, the max response, negative = inhibition is inactive: 2.45%.

As to `O=C(O)C(O)c1ccc(N(CCCl)CCCl)cc1` (stereo not given), the max response, negative = inhibition was inactive: 21.7%.

Regarding `CC1CCNP(=O)(N(CCCl)CCCl)O1` (stereo not given), the max response, negative = inhibition is inactive: -13.4%.

As to `COP(=O)(OC)N1CC1c1ccccc1` (stereo not given), the max response, negative = inhibition is inactive: -13.6%.

Turning to `Cc1cc(SC(NC(=O)c2ccccc2)C(Cl)(Cl)Cl)nc(C(C)C)n1` (stereo not given), the max response, negative = inhibition was inactive: -4.26%.

As for `CCCCOc1ccc(C(=O)NCC2(N3CCCCC3)CCCCC2)cc1OC`, the max response, negative = inhibition was inactive: -28.3%.

`CSc1ccc(Nc2c([N+](=O)[O-])cc([N+](=O)[O-])cc2[N+](=O)[O-])cc1`: the max response, negative = inhibition was active: -53.7%.

As to `O=C(OC1CN2CCC1CC2)c1cccc([N+](=O)[O-])c1` (stereo not given), the max response, negative = inhibition is inactive: -16.3%.

As for `CCOC(=O)c1ccc(NC(=O)C(C)(CCl)SC)cc1` (stereo not given), the max response, negative = inhibition is inactive: -18.3%.

For the molecule `CCC(C)N(CC(C)C)C(=S)SC(NC(C)=O)C(Cl)(Cl)Cl` (stereo not given), the max response, negative = inhibition was inactive: -25.6%.

Take `COC(=O)C1(C)COP(=O)(N2CCCC2)OC1` (stereo not given): the max response, negative = inhibition was inactive: -21.9%.

With `COP1(=S)c2c(C)nn(CCC#N)c2N=C(c2ccc(F)cc2)N1C` (stereo not given), the max response, negative = inhibition is inactive: -26.6%.

`O=C(O)C(=O)c1ccc(N(CCCl)CCCl)cc1`: the max response, negative = inhibition was inactive: -23.2%.

For `O=C(Nc1ccncc1[N+](=O)[O-])c1ccc([N+](=O)[O-])cc1[N+](=O)[O-]`, the max response, negative = inhibition is inactive: -4%.

As for `O=C(COc1ccccc1)OC1CN2CCC1CC2` (stereo not given), the max response, negative = inhibition is inactive: 30.4%.

Turning to `O=[N+]([O-])c1cc(Oc2ccc([N+](=O)[O-])cc2C(F)(F)F)cc([N+](=O)[O-])c1`, the max response, negative = inhibition is inactive: 0%.

`COc1ccc(N/C(=N/P(=O)(N2CCOCC2)N2CCOCC2)N2CCOCC2)cc1`: the max response, negative = inhibition was inactive: -5.03%.

For `Cc1c2c(nc3ccccc13)SC(C(Cl)Cl)C2` (stereo not given), the max response, negative = inhibition was inactive: -1.19%.

Regarding `Cc1cc(=O)[nH]c(N[N+](=O)[O-])n1`, the max response, negative = inhibition was inactive: 2.11%.

As to `O=C(OC1CN2CCC1CC2)C12CC3CC(CC(C3)C1)C2` (stereo not given), the max response, negative = inhibition was active: -51.8%.

For `O=P1(N(CCCl)CCCl)OCCCN1CCCl` (stereo not given), the max response, negative = inhibition is inactive: -19.6%.

Take `O=P1(N(CCCl)CCCl)Nc2ccccc2N1`: the max response, negative = inhibition is inactive: -0.561%.

In the case of `COc1cc(I)ccc1[As](=O)(O)O`, the max response, negative = inhibition was inactive: -2.05%.

Take `COc1ccc2nc(NP(=O)(c3ccccc3)c3ccccc3)sc2c1`: the max response, negative = inhibition was inactive: 6.57%.

For the molecule `ClCCSc1nnc(-c2cccnc2)o1`, the max response, negative = inhibition was inactive: 9.77%.

With `COC(=O)C1(C)COP(=O)(N2CCCCCC2)OC1` (stereo not given), the max response, negative = inhibition is inactive: 0.323%.

With `CC(C)c1ccc(OP(=O)(Nc2ccccn2)Oc2ccccc2F)cc1` (stereo not given), the max response, negative = inhibition is inactive: -12.5%.

Turning to `CC(C)NC(=O)NP(=O)(Oc1ccccc1)Oc1ccccc1`, the max response, negative = inhibition was inactive: 5.33%.

Take `O=C(OC1CN2CCC1CC2)c1cccc2[nH]cnc12` (stereo not given): the max response, negative = inhibition was inactive: 11%.

Regarding `CCN(CC)C(=S)SC(NC=O)C(Cl)(Cl)Cl` (stereo not given), the max response, negative = inhibition is inactive: 3.3%.

Take `O=[N+]([O-])c1ccc(-c2cc([N+](=O)[O-])c(O)c([N+](=O)[O-])c2)cc1`: the max response, negative = inhibition is inactive: 0%.

In the case of `COc1cc(C(=O)NCC2(N3CCOCC3)CCCCC2)ccc1OCC(C)C`, the max response, negative = inhibition was inactive: -6.03%.

As to `C[As](=O)(O)c1cccc(C(=O)O)c1`, the max response, negative = inhibition was inactive: -6.35%.

With `O=[As](O)(c1ccc(O)cc1)c1ccccc1O`, the max response, negative = inhibition was inactive: 1.1%.

In the case of `Cc1ccc(OP(=O)(Nc2ccc([N+](=O)[O-])cn2)Oc2ccc(C)cc2)cc1`, the max response, negative = inhibition was inactive: 9.83%.

For the molecule `Cc1ccc2nc3c(c(C)c2c1)CC(C(Cl)Cl)S3` (stereo not given), the max response, negative = inhibition was inactive: 13.1%.

As for `NC(=O)Nc1ccc([As](=O)(O)O)cc1`, the max response, negative = inhibition is inactive: -22.4%.

On to `CN(C(=O)Cc1ccccc1)[C@@H]1CC[C@]2(CCCO2)C[C@H]1N1CCCC1`, for which the max response, negative = inhibition is inactive: 9.1%.

Consider `CCOP1(=S)c2c(C)nn(CCC#N)c2N=C(c2ccc(F)cc2)N1C` (stereo not given), for which the max response, negative = inhibition is inactive: 3.95%.

Take `N#CCCN(C(=O)COC(=O)C(O)(c1ccccc1)c1ccccc1)c1ccc(F)cc1`: the max response, negative = inhibition is inactive: -13.7%.

As to `CN(C(=O)Cc1ccc(Cl)c(Cl)c1)[C@H]1CC[C@@]2(CCCO2)C[C@@H]1N1CCCC1`, the max response, negative = inhibition was inactive: -6.96%.

Take `O=[N+]([O-])c1ccc2c(c1)nnn2O`: the max response, negative = inhibition was inactive: -7.48%.

For `CN(C)C(=O)c1cc([N+](=O)[O-])cc2c1-c1c(cc([N+](=O)[O-])cc1[N+](=O)[O-])C2=O`, the max response, negative = inhibition is active: -106%.

`O=P(Nc1nccs1)(Oc1ccccc1)Oc1ccccc1`: the max response, negative = inhibition is inactive: -28.5%.

Consider `O=P(Nc1nccs1)(c1ccccc1)c1nc2ccccc2s1` (stereo not given), for which the max response, negative = inhibition was active: -92.1%.

Consider `CCOP1(=S)c2c(C)nn(CCC#N)c2N=C(c2ccccc2F)N1C` (stereo not given), for which the max response, negative = inhibition is inactive: -20.4%.
